Measurements as given in ChEMBL document CHEMBL1155442, “Click chemistry approach to new N-substituted aminocyclitols as potential pharmacological chaperones for Gaucher disease” (J Med Chem, 2010).

Test system: Glucosylceramide synthase (Homo sapiens)
Assay: Inhibition of glucosylceramide synthase in human A549 cells at 250 uM after 35 mins by fluorescence-coupled HPLC analysis

CCCCCCCCCn1cc(CCN[C@H]2[C@H](O)[C@@H](O)[C@H](O)[C@@H](O)[C@@H]2O)nn1
inhibition: 30%
